Measured values taken from patent US20130260436A1, “Methods of Identifying and Characterizing Natural Product Gene Clusters” (Victoria LInk Limited, priority 2010, published 2013).

Biological target: all three PPTases
Assay: BpsA coupled PPTase inhibition assay, summary over all three PPTases
Settings: read-out: IC50 values, range over the three PPTases; CoA concentration set at 1.25 μM

With O=Nc1ccc2oc(=O)ccc2c1 [6-NOBP] the IC50 was 2.1 to 4 µM.
